From patent US20140094493A1, “Novel Ether Linked Compounds and Improved Treatments for Cardiac and Cardiovascular Disease” (priority 2011, published 2014)

The chains behind the UniProt entries cited, without tags or fusion partners.
UniProt P08588, whole entry: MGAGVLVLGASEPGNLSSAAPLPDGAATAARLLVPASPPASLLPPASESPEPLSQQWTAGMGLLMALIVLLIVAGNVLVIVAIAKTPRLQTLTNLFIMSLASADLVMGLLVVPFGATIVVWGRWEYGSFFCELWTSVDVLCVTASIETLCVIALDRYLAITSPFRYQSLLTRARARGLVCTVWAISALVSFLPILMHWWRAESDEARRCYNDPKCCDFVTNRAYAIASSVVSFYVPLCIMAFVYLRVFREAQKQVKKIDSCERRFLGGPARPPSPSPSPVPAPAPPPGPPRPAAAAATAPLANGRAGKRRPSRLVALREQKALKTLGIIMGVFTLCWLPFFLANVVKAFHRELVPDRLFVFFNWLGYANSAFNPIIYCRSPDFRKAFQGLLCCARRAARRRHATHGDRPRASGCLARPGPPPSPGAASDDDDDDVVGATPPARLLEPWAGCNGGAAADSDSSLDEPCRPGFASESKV
UniProt P07550, whole entry: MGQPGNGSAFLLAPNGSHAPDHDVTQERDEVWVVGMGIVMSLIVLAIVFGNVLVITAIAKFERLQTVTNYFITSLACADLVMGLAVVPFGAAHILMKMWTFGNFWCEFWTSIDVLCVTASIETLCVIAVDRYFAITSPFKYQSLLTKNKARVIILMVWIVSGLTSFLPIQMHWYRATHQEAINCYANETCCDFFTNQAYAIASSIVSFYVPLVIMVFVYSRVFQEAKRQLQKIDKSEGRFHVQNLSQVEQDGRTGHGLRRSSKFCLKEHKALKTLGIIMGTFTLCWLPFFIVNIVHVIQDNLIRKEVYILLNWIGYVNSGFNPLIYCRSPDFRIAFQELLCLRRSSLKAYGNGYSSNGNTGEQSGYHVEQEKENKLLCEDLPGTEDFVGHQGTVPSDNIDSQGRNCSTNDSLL

What was measured:
[1] = target: human beta1-adrenoceptor (Homo sapiens, UniProt P08588); experiment: 3H-CGP12177 whole-cell binding, beta1
Experimental: (§1) Selectivity of ligands for the three beta-adrenoceptors was assessed by whole-cell binding studies using ^3H-CGP12177 in CHO cells expressing the human beta1, beta2 or beta3-adrenoceptors respectively essentially as described by Baker (2005; Br. J Pharmacol: 144, 317-22) Values shown are KD values determined as described by Baker (2005). KD represents the concentration of compound required to occupy 50% of the receptors in cells or tissues.
(§2) The selectivity of a ligand is given by the ratio of beta-1 to beta-2 KD. Accordingly a difference of one in the logarithmic values thereof represents a 10-fold selectivity, a difference of 2 represents 100-fold selectivity and a difference of 3 represents 1000-fold selectivity etc.

[2] = target: human beta2-adrenoceptor (Homo sapiens, UniProt P07550); experiment: 3H-CGP12177 whole-cell binding, beta2; conditions: 3H-CGP 12177 whole cell binding, CHO cells expressing human beta2-adrenoceptor; logarithmic value
Experimental: as §1, §2

Beta 1 Log KD ([1]; 3H-CGP 12177 whole cell binding, CHO cells expressing human beta1-adrenoceptor, logarithmic value): −8.36 | Beta 1-Beta 2 Log KD (selectivity) ([1]; difference of Log KD beta1 and beta2, 1 = 10-fold, 2 = 100-fold, 3 = 1000-fold selectivity): 1.91 | Beta 2 Log KD [2]: −6.46
Compound: O=C1NCCc2cc(OCCNC[C@H](O)COc3ccc(OCCOC4CCCC4)cc3)ccc21
